For orientation: inhibition means the change of the read-out against control, counted positive when it falls.

For assay [1], the system named is Adenosine receptor A2a (Bos taurus). The experiment in a line: Percent inhibition of specific [3H]-CGS-21,680 binding to adenosine A2A receptors in bovine cortical membranes at 10 uM concentration.
Assay [2] concerns Adenosine receptor A3 (Bos taurus). The experiment in a line: Percent inhibition of [125I]AB-MECA binding to Adenosine A3 receptor in bovine cortical membranes at 10 uM.

Each structure is given as a SMILES string.

On to `CCOCCNc1c(C(=O)OCC)cnc2c1cnn2CC(Cl)COc1ccccc1` (configuration not stated), for which, in assay [1], the inhibition is 15%.
In assay [2], `CCOC(=O)c1cnc2c(cnn2CC(Cl)c2ccccc2)c1N1CCCC1` (configuration not stated) gave an inhibition of 0%.

The values above are taken from ChEMBL document CHEMBL1135638, “Synthesis, molecular modeling studies, and pharmacological activity of selective A(1) receptor antagonists” (J Med Chem, 2002).
